The values that follow are results of earlier work, collected in US20200325487A1, “A COM[…] FOR REDUCING RANDOM I[…] WHEN TR[…]” (UNIVERSITEIT LEIDEN, priority 2017, published 2020).

Chains of the proteins cited; added tags and fusions are not shown.
UniProt P49959, whole entry, species assumed: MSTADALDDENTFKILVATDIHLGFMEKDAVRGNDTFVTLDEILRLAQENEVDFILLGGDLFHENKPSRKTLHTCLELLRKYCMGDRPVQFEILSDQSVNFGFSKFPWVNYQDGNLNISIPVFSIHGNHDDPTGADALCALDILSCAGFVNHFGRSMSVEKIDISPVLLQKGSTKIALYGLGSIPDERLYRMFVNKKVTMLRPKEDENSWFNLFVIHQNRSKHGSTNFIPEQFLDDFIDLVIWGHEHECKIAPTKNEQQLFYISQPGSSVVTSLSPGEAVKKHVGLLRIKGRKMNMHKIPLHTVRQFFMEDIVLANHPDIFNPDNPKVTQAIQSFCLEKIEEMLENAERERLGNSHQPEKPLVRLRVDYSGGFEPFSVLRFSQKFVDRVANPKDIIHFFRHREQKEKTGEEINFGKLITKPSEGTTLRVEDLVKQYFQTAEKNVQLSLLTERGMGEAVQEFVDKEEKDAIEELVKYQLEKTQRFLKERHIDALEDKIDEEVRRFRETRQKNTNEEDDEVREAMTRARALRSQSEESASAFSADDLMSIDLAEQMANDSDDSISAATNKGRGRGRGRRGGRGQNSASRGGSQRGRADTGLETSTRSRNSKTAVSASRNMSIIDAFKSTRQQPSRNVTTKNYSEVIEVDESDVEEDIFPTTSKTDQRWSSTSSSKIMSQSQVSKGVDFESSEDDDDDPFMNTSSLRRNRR

Each structure is given as a SMILES string.

The target of series [1] is Mre11 (Homo sapiens, UniProt P49959). Particulars: cited from earlier work.
Series [2] concerns Mre1-Rab50-Nbs1 (MRN)-ATM pathway. Particulars: without affecting ATM protein kinase activity; cited from earlier work.

On to `[H]/N=C1/NC(=O)C(=Cc2ccc(O)cc2)S1` [Mirin, Z-5-(4-hydroxybenzylidene)-2-imino-1,3-thiazolidin-4-one], for which, in series [1], the Mre11-associated exonuclease activity entry was “inhibits Mre11-associated exonuclease activity”. In addition, in series [2], the “MRN-dependent activation of ATM” value is “prevents MRN-dependent activation of ATM”.
